Measured values as given in patent publication US10526320B2, “Pyrrolidine derivatives as PPAR agonists” (GUANGDONG RAYNOVENT BIOTECH CO., LTD., priority 2016, dated 2020).

Chains of the proteins cited; added tags and fusions are not shown. Lines headed by an entry give the natural chain unless they say otherwise; changes in a name come on top.
UniProt P37231: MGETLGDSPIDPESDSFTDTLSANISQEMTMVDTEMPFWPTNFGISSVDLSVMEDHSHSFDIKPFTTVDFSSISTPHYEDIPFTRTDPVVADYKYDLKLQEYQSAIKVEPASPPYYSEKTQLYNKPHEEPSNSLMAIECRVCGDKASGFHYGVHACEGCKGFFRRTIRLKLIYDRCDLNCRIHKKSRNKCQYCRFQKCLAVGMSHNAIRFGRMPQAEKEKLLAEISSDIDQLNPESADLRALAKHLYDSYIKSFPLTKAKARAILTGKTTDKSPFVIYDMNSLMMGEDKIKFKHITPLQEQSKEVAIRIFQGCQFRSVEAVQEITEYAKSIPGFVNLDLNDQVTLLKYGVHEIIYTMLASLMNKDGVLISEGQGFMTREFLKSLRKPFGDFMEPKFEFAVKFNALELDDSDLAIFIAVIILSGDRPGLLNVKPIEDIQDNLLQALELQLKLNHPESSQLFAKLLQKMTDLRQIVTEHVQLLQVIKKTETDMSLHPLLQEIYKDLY

target: T1, PPAR Alpha (Homo sapiens, UniProt Q07869); experiment: PathHunter NHR protein interaction / nuclear translocation agonist test, PPAR Alpha; format: cell-based; details: not given
T1 sequence (Q07869 1-468): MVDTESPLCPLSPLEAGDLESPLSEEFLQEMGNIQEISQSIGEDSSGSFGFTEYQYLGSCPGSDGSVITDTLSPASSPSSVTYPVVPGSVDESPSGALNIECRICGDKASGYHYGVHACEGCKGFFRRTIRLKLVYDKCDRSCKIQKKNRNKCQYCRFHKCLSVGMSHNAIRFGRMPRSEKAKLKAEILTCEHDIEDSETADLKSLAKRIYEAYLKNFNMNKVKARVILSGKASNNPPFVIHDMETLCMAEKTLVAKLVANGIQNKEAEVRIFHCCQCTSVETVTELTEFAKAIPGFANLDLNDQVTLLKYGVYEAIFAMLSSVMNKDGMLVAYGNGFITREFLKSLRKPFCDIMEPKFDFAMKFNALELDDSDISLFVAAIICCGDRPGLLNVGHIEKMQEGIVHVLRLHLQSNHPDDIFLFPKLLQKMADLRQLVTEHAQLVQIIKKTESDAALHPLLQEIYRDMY

For `CSc1ccc(C(=O)C2CN(C(=O)Oc3ccccc3)CC2Cc2cccc(OC(C)(C)C(=O)O)c2)cc1` (single isomer, unassigned) [Compound 50], which “PPAR Alpha Maximum Activation Response %” value is on record?
Its value is “III (key: 100% ≥ I ≥ 80%; 80% ≥ II ≥ 50%; III < 50%)”.

With `Cc1cc(CCC2CN(C(=O)Oc3ccccc3)CC2C(=O)c2ccc(Cl)cc2)cc(C)c1OC(C)(C)C(=O)O` (single isomer, unassigned) [Compound 66] as the compound, how does the “PPAR Alpha Maximum Activation Response %” value read?
Its value is “I (key: 100% ≥ I ≥ 80%; 80% ≥ II ≥ 50%; III < 50%)”.

same assay, conditions: read-out: PPAR Alpha Maximum Activation Response %

Which Emax does the source give for `CSc1ccc(C(=O)C2CN(C(=O)Oc3ccccc3)CC2c2cc(C)c(OC(C)(C)C(=O)O)c(C)c2)cc1` (single isomer, unassigned) [Compound 9] here?
Its Emax is 80 to 100%.

How did the Emax turn out when `CSc1ccc(C(=O)[C@@H]2CN(C(=O)Oc3ccccc3)C[C@H]2CCc2cc(C)c(OC(C)(C)C(=O)O)c(C)c2)cc1` (single isomer, unassigned) [Compound 51] was run?
Its Emax is 80 to 100%.

For `Cc1cc(CCC2CN(C(=O)Oc3ccccc3)CC2C(=O)c2ccc(Cl)cc2)cc(C)c1OC(C)(C)C(=O)O` (single isomer, unassigned) [Compound 65], which Emax is on record?
The Emax was 80 to 100%.

For `CSc1ccc(C(=O)C2CN(C(=O)Oc3ccccc3)CC2c2cccc(OC(C)(C)C(=O)O)c2)cc1` (stereo not shown) [Compound 24], which Emax is on record?
The Emax was 80 to 100%.

For `CSc1ccc(C(=O)C2CN(C(=O)Oc3ccccc3)CC2Cc2cc(C)c(OC(C)(C)C(=O)O)c(C)c2)cc1` (stereo not shown) [Compound 26], which Emax is on record?
Its Emax is 80 to 100%.

`CSc1ccc(C(=O)C2CN(C(=O)Oc3ccccc3)CC2Cc2cccc(OC(C)(C)C(=O)O)c2)cc1` (single isomer, unassigned) [Compound 49] was tested. Which Emax did it give?
The Emax was 50 to 80%.

target: PPAR Gamma (Homo sapiens, UniProt P37231); experiment: PathHunter NHR protein interaction / nuclear translocation agonist test, PPAR Gamma; format: cell-based; details: not given

For `Cc1cc(CCC2CN(C(=O)Oc3ccccc3)CC2C(=O)c2ccc(Cl)cc2)cc(C)c1OC(C)(C)C(=O)O` (single isomer, unassigned) [Compound 66], which “PPAR Gamma Maximum Activation Response %” value is on record?
Its value is “I (key: 100% ≥ I ≥ 80%; 80% ≥ II ≥ 50%; III < 50%)”.

same assay, conditions: read-out: PPAR Gamma Maximum Activation Response %

Which Emax does the source give for `CSc1ccc(C(=O)[C@@H]2CN(C(=O)Oc3ccccc3)C[C@H]2CCc2cc(C)c(OC(C)(C)C(=O)O)c(C)c2)cc1` (single isomer, unassigned) [Compound 51] here?
Its Emax is 80 to 100%.

`Cc1cc(CCC2CN(C(=O)Oc3ccccc3)CC2C(=O)c2ccc(Cl)cc2)cc(C)c1OC(C)(C)C(=O)O` (single isomer, unassigned) [Compound 65] was tested. Which Emax did it give?
The Emax was 80 to 100%.

With `CSc1ccc(C(=O)C2CN(C(=O)Oc3ccccc3)CC2Cc2cc(C)c(OC(C)(C)C(=O)O)c(C)c2)cc1` (stereo not shown) [Compound 26] as the compound, how does the Emax read?
Its Emax is 80 to 100%.

For `CSc1ccc(C(=O)C2CN(C(=O)Oc3ccccc3)CC2Cc2cccc(OC(C)(C)C(=O)O)c2)cc1` (single isomer, unassigned) [Compound 49], which Emax is on record?
Its Emax is 50 to 80%.
